Measured values from patent publication US20250064957A1, “EXATECAN DERIVATIVES, LINKER-PAYLOADS, AND CONJUGATES AND THEREOF” (priority 2021, published 2025).

How the values were obtained:
[1] = test system: JIMT-1 human breast cancer cells (HER2 medium); assay: JIMT-1 human breast cancer xenograft model; type: in vivo; details: SCID Beige mice, 5 mg/kg intravenously
Procedure: 5×10^6 JIMT-1 human breast cancer cells (HER2 medium) were inoculated subcutaneously in the right flank in SCID Beige mice. After 7 days, when tumor volume reached 142 mm^3 on average, the tumor bearing mice were assigned and administrated intravenously of LC1184(8) and other five different conjugates at 5 mg/kg. The tumor volume was measured twice weekly with calipers. […] The conjugate of the present invention achieves great efficacy in lower DAR.

[2] = test system: MDA-MB-468 HER2-negative cell line; assay: Effect of HER2-targeting conjugates on cell proliferation (CellTiter-Glo), MDA-MB-468; type: cell-based; details: MDA-MB-468, 120 h, up to 200 nM
Procedure: Study Purpose: Cell viability was detected by CellTiter-Glo assay to evaluate the effects of the ADCs on the proliferation of two high HER2 tumor cell lines SK-BR-3, NCI-N87 and a HER2-negative tumor cell line MDA-MB-468, and to analyze the effects of the ADCs on the proliferation of tumor cells.
• (1) Microscopic examination of cells • (2) Digestion: digested using 2 mL 0.25% trypsin for 3 minutes; • (3) Centrifuge: 1000 rpm for 5 min; • (4) Cell counting • A. Cell dilution: • B. Cell plating: in 100 μl/well • C. Incubation: 37° C., 5% CO2, overnight
• (1) Microscopic examination • (2) Drug preparation: • A. Preparation of Buffer for preparation of samples: the desired amount of Buffer for preparation of samples was prepared using the culture medium (10% FBS) for the testing cells; • B. Sample preparation: the sample was diluted from the first concentration to the desired concentration in a 96-well deep-well Plate.
Positive control Puromycin: A stock solution of 10 mg/ml was used, and diluted with the cell medium. A dilution of 100-fold was preformed, and then a dilution of 10-fold was preformed when applying the compounds to reach the testing concentration 5 μg/ml for puromycin. • (4) Application of the compounds: for each concentration of the diluted series, the compound was applied in triplicate. […]

[3] = test system: Capan-1 human pancreatic cancer cells (HER2 low); assay: Capan-1 human pancreatic cancer xenograft model (1); type: in vivo; details: BALB/c nude mice, 5 mg/kg intravenously
Procedure: 5×10^6 Capan-1 human pancreatic cancer cells (HER2 low) were inoculated subcutaneously in the right flank in BALB/c nude mice to generate xenograft model. After 8 days, when tumor volume reached 178 mm^3 on average, the tumor bearing mice were administrated intravenously of LC1184(8) and other five different conjugates at 5 mg/kg. The tumor volume was measured twice weekly with calipers.

[4] = test system: MDA-MB-468 cells in co-culture with SK-BR-3; assay: Bystander killing in co-culture of SK-BR-3 and MDA-MB-468-Luc-GFP; type: cell-based; details: SKBR3:MDA-MB-468-Luc-GFP 4:1, 50, 10 and 1 nM, 120 h; GFP fluorescence and luciferase luminescence
Procedure: • 1) Cell collection and counting. • 2) The cell density was adjusted to 1*10^5 cells/ml • 3) The cell mixture was prepared, wherein SKBR3: MDA-MB-468-Luc-GFP=4:1, 5 ml.
Cell plating: 1*10^4 cells/well, 100 μl/well
Test samples: Three final concentrations are prepared from dilution with the cell medium: 50, 10 and 1 nM. • 4) The drug was administered the next day, 100 μl/well. • 5) Incubate in a 5% CO2 incubator at 37° C. for 120h. • (1) washed by PBS to remove dead cells, and detected by Cytation3 plate reader; • (2) Biyuntian luciferase reporter gene assay kit: lysed in 37° C. incubator for 10 min using 100 μl lysis buffer. Centrifuged at 2000 rpm for 5 minutes. 100 μl supernatant was taken. 100 μl substrate was added. The chemiluminescence was detected by microplate reader (gain: 200).
Two methods (GFP fluorescence counting and luciferase substrate luminescence method) were used for determination of bystander killing effects (FIG. 4a, 4b and FIG. 5).

Substance: LC302-2-4(4)
- efficacy (tumor volume) in JIMT-1 CDX model [1]: better efficacy than LC1184(8)
- cytotoxicity in HER2 negative cell MDA-MB-468 [2]: No cytotoxicity was observed
- efficacy (tumor volume) in Capan-1 CDX model (1) [3]: comparable efficacy to LC1184(8)
- bystander killing effect [4]: outstanding bystander killing effects
